# According to PubChem BioAssay AID651658 (Broad Institute, 2012):
# By UniProt entry, the sequences of proteins in these tests, tags left out.
# UniProt Q9HCT0, whole entry: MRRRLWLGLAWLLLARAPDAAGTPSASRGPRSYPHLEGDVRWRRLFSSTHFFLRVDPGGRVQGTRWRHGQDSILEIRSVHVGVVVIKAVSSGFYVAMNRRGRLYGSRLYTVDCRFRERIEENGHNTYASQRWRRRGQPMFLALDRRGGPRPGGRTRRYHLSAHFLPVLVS
# This is a selection; strong and weak results do not stand in their true shares. The source made the active and inactive calls.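 The calls were made as follows: active = mean Tm shift, scaled 0 neutral to 100 positive control, at about 1.3% or above, every replicate too (limit read from the data); inconclusive = no clear call, values can overlap the other calls; inactive = the rest.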
# Biological target: Fibroblast growth factor 22 (Homo sapiens) (UniProt Q9HCT0)
# Test: binders of human FGF22 protein, primary screen, FGF22 synaptogenesis inhibitor project, biophysical, thermal shift, single point (AID 651658)
# Settings: recombinant FGF22 thermal shift, SYPRO orange fluorescence; at 9.99 µM; stronger effect = higher value; percent of sucrose octasulfate shift, DMSO zero
row,Structure (SMILES),"activity (Tm shift, normalised)"
1,COc1ccc2nc(NP(=O)(c3ccccc3)c3ccccc3)sc2c1,inactive: 0.089%
2,COc1cc(I)ccc1[As](=O)(O)O,inactive: 0.125%
3,COc1ccc(CN2/C(=N\P(=O)(Oc3ccccc3)Oc3ccccc3)Cc3ccccc3C2C2CC2)cc1 (configuration not stated),inactive: -0.607%
4,O=P1(N(CCCl)CCCl)Nc2ccccc2N1,inactive: -0.214%
5,O=P1(N(CCCl)CCCl)OCCCN1CCCl (configuration not stated),inactive: 0.027%
6,COc1ccc(N/C(=N/P(=O)(N2CCOCC2)N2CCOCC2)N2CCOCC2)cc1,inactive: -0.007%
7,COc1ccccc1-c1ccccn1.O=[N+]([O-])c1cc([N+](=O)[O-])c(O)c([N+](=O)[O-])c1,inactive: 0.25%
8,O=[N+]([O-])c1cc(Oc2ccc([N+](=O)[O-])cc2C(F)(F)F)cc([N+](=O)[O-])c1,inactive: 0.016%
9,NC(=O)c1cc([N+](=O)[O-])cc([N+](=O)[O-])c1N,inactive: 0.568%
10,CN(C(=O)Cc1ccc(Cl)c(Cl)c1)[C@H]1CCCC[C@H]1N1CCCC1,inactive: -0.068%
11,COc1ccccc1OP(C)(=O)Nc1ccc(Br)cc1 (configuration not stated),inactive: -0.18%
12,Cc1ccc(N/C(=N/P(=O)(N2CCOCC2)N2CCOCC2)N2CCOCC2)cc1,inactive: 42.4%
13,COc1ccccc1OP(=O)(Nc1ccc(C)cn1)Oc1ccccc1OC,inactive: 0.343%
14,Cc1ccc(OP(=O)(Nc2nccs2)Oc2ccc(C)cc2)cc1,inactive: 0.241%
15,Clc1ccc(Cl)c(NC2=NCC(CBr)S2)c1 (configuration not stated),inactive: 0.615%
16,Nc1cc(N)c2nonc2c1[N+](=O)[O-],inactive: 0.016%
17,O=[N+]([O-])c1cc([N+](=O)[O-])c(Nc2ccccn2)c([N+](=O)[O-])c1,inactive: -0.08%
18,O=C(NC(Sc1ccncn1)C(Cl)(Cl)Cl)c1ccccc1 (configuration not stated),inactive: -0.109%
19,CC(=O)Nc1ccc([As](=O)(O)O)cc1,inactive: -0.022%
20,O=C(O)c1ccccc1[As](=O)(O)O,inactive: -0.129%
21,O=P(Nc1nc2ccc(Cl)cc2s1)(c1ccccc1)c1ccccc1,inactive: 0.135%
22,CN(C)P(=O)(N(C)C)n1c(Nc2ccccc2)nnc1-c1ccccc1,inactive: -0.692%
23,Cc1ccc(NP(=O)(Oc2ccccc2F)Oc2ccccc2F)nc1,inactive: 0.011%
24,CN(C(=O)Cc1ccc(Cl)c(Cl)c1)[C@H]1CCCC[C@@H]1N1CCCC1,inactive: -0.01%
25,CCn1c(=O)n(C2CCN(CC3CCCCCCC3)C[C@H]2CO)c2ccccc21 (some centres not stated),inactive: 0.103%

row,Structure (SMILES),"activity (Tm shift, normalised)"
1,CN(C(=O)Cc1ccccc1)C1CC[C@@]2(CCCO2)C[C@@H]1N1CCCC1 (some centres not stated),inactive: -0.158%
2,Nc1cccc2ccc([As](=O)(O)O)cc12,inactive: -0.9%
3,CCCCCCCCCCCCCCCC1C[N+](C)(C)CCOP(C)(=O)O1 (configuration not stated),inactive: -1.61%
4,CP(=O)(Nc1ccc(Cl)cc1Cl)Oc1ccccc1 (configuration not stated),inactive: -0.124%
5,CP(=O)(OCCOc1ccccc1)OCCOc1ccccc1,inactive: 0.033%
6,Nc1ccc2c(ccc3cccnc32)n1.O=[N+]([O-])c1cc([N+](=O)[O-])c(O)c([N+](=O)[O-])c1,inactive: 0.221%
7,O=P1(N(CCCl)CCCl)OCCCS1 (configuration not stated),inactive: -0.049%
8,CCOC(=O)c1ccc(NP(C)(=O)Oc2ccc(Cl)cc2)cc1 (configuration not stated),inactive: 0.679%
9,O=C(Nc1cc([As](=O)(O)O)ccc1O)c1ccccc1,inactive: -0.527%
10,CC(C)(C)C(=O)NC(Sc1ccncn1)C(Cl)(Cl)Cl (configuration not stated),inactive: 0.254%
11,O=[N+]([O-])c1ncn(CCn2ncnc2[N+](=O)[O-])n1,inactive: 1.17%
12,COC(=O)C1(C)COP(=O)(Nc2ccccc2)OC1 (configuration not stated),inactive: -0.044%
13,O=[N+]([O-])c1cccc(NC2=NCC(CBr)S2)c1 (configuration not stated),inactive: -0.124%
14,O=C(O)CNc1ccc([As](=O)(O)O)cc1,inactive: 0.06%
15,COc1ccc(C2=NCC(CBr)S2)cc1 (configuration not stated),inactive: 0.175%
16,O=C(OCCCN1CCCC1)C(O)(c1ccccc1)C1CCCCC1 (configuration not stated),inactive: -0.085%
17,Cc1ccc(NP(=O)(Oc2ccccc2)Oc2ccccc2)nc1,inactive: 0.011%
18,CCc1ccc(OP(C)(=O)Nc2cccnc2)cc1 (configuration not stated),inactive: 0.46%
19,O=[N+]([O-])c1cc([N+](=O)[O-])c(CCNc2ccccc2)c([N+](=O)[O-])c1,inactive: 0.146%
20,COc1ccccc1OP(C)(=O)Nc1ccccc1Br (configuration not stated),inactive: -0.156%
21,Nc1ccc([As](=O)(O)c2ccc(N)cc2)cc1,inactive: 0.119%
22,C[N+]1=C2C=CC=CC=C2SC12C([N+](=O)[O-])=CC([N+](=O)[O-])=C[C-]2[N+](=O)[O-] (configuration not stated),inactive: 0.1%
23,CCN(/C(=N/P(=O)(N1CCOCC1)N1CCOCC1)N1CCOCC1)c1ccc(OC)cc1,inactive: -0.161%
24,CC(C)c1nc(Nc2ccccc2)n(P(=O)(N(C)C)N(C)C)n1,inactive: 0.057%
25,CN(C)C(=O)c1c([N+](=O)[O-])cc([N+](=O)[O-])cc1[N+](=O)[O-],active: 43.5%

row,Structure (SMILES),"activity (Tm shift, normalised)"
1,CC(C)=N/N=C(\N)N[N+](=O)[O-],inactive: 0.111%
2,c1cc(-c2nn[nH]n2)ccc1-c1nn[nH]n1,inactive: 0.499%
3,CP(=O)(Nc1ccc(SC(F)(F)F)cc1)Oc1ccc(F)cc1 (configuration not stated),inactive: 0.049%
4,CCOP(=O)(CC)OCC,inactive: -0.077%
5,O=P(Nc1ccccn1)(c1ccc(Br)cc1)c1ccc(Br)cc1,inactive: 0.169%
6,CN(C)C1(CNC(=O)c2ccc(Cl)c(S(N)(=O)=O)c2)CCCCC1,inactive: -0.26%
7,O=P(Nc1nc2ccccc2s1)(c1ccccc1)c1ccccc1,inactive: 0.219%
8,C[C@H]1OP(=O)(Oc2ccccc2)[C@H](O)[C@H](O)[C@H]1N=[N+]=[N-] (some centres not stated),inactive: 0.05%
9,COc1ccc(NP(C)(=O)Oc2ccccc2OC)cc1 (configuration not stated),inactive: 0.142%
10,O=[N+]([O-])c1ncn(CCn2cnc([N+](=O)[O-])n2)n1,inactive: 0.434%
11,CC(=O)NC(SC(=S)N(C)C)C(Cl)(Cl)Cl (configuration not stated),inactive: 0.011%
12,O=[N+]([O-])c1ccc(OP2(=O)COCCO2)cc1 (configuration not stated),inactive: -0.033%
13,O=[As](O)(c1ccccc1)c1ccc(O)cc1,inactive: 0.155%
14,O=[N+]([O-])c1cc([N+](=O)[O-])c(NCC2CCS(=O)(=O)C2)c([N+](=O)[O-])c1 (configuration not stated),inactive: 0.052%
15,Cc1cc(-c2cccc3ccccc23)c(C)cn1.O=[N+]([O-])c1cc([N+](=O)[O-])c(O)c([N+](=O)[O-])c1,inactive: 1.07%
16,Cc1c(C(c2ccc3c(c2)OCO3)c2c(C)n(C)n(-c3ccccc3)c2=O)c(=O)n(-c2ccccc2)n1C.O=[N+]([O-])c1cc([N+](=O)[O-])c(O)c([N+](=O)[O-])c1,inactive: 0.104%
17,C/C(N)=N\P(=O)(OCc1ccccc1)OCc1ccccc1,inactive: -0.585%
18,C(Cc1nn[nH]n1)Cc1nn[nH]n1,inactive: 0.224%
19,Nc1ccc([As](=O)(O)c2ccc([N+](=O)[O-])cc2)cc1,inactive: -0.305%
20,CCNC(=S)/N=C(\N)N[N+](=O)[O-],inactive: 0.139%
21,O=C(NC1CCS(=O)(=O)C1)NP(=S)(Oc1ccccc1)Oc1ccccc1 (configuration not stated),inactive: -0.171%
22,CCN(CC)CCCNc1ccccc1[N+](=O)[O-].O=[N+]([O-])c1cc([N+](=O)[O-])c(O)c([N+](=O)[O-])c1,active: 1.47%
23,Cc1ccc(NP(=O)(Oc2cccc(C)c2)Oc2cccc(C)c2)nc1,inactive: -0.005%
24,O=P1(N(CCCl)CCCl)OCCC2CCCCN21 (configuration not stated),inactive: -0.13%
25,COc1ccc(OP(C)(=O)Nc2ccc(SC(F)(F)F)cc2)cc1 (configuration not stated),inactive: -0.001%

row,Structure (SMILES),"activity (Tm shift, normalised)"
1,Cc1c([N+](=O)[O-])cc([N+](=O)[O-])c(Br)c1[N+](=O)[O-],inactive: -0.144%
2,Cc1ccc(OP(=O)(Nc2ccccn2)Oc2ccc(C)cc2)cc1,inactive: 0.282%
3,O=C(OC1CN2CCC1CC2)c1ccccc1 (configuration not stated),inactive: -0.009%
4,CC(NC(=O)COC(=O)C(O)(c1ccccc1)c1ccccc1)c1ccccc1 (configuration not stated),inactive: -0.159%
5,Cc1ccccc1OP(=O)(Nc1ccccn1)Oc1ccccc1C,inactive: 0.152%
6,O=[N+]([O-])c1cc([N+](=O)[O-])c(OC2CCCCC2O)c([N+](=O)[O-])c1 (configuration not stated),inactive: 0.081%
7,O=[N+]([O-])c1cc([N+](=O)[O-])c(Nc2ccc(Cl)cc2)c([N+](=O)[O-])c1,inactive: 0.532%
8,CCOc1ccc(C2=NCC(CBr)S2)cc1 (configuration not stated),inactive: 0.113%
9,CCc1cc(O)c([N+](=O)[O-])c(C)c1[N+](=O)[O-],inactive: -0.085%
10,CP(=O)(Nc1ccccc1F)Oc1ccccc1 (configuration not stated),inactive: 0.14%
11,CC(C)(C)C(=O)NC(Sc1ccccc1)C(Cl)(Cl)Cl (configuration not stated),inactive: -0.274%
12,CC(C)c1ccc(OP(C)(=O)Nc2ccc(SC(F)(F)F)cc2)cc1 (configuration not stated),inactive: 0.371%
13,CC(=O)c1ccc(N2CC2c2ccncc2)cc1 (configuration not stated),inactive: -0.33%
14,N#C/C(=C\c1ccc(N(CCBr)CCBr)cc1)C(N)=O,inactive: 0.198%
15,O=C(OC1CN2CCC1CC2)c1ccc([N+](=O)[O-])cc1 (configuration not stated),inactive: -0.405%
16,COC(=O)C1(C)COP(=O)(NCc2ccccc2)OC1 (configuration not stated),inactive: -0.31%
17,Cc1ccccc1CN(C)C(=O)COC(=O)C(O)(c1ccccc1)c1ccccc1,inactive: -0.014%
18,O=C(OCCN1CCN(CCOCc2ccccc2)CC1)C(O)(c1ccccc1)c1ccccc1,inactive: -0.056%
19,C[C@H]1OP(=O)(Oc2ccccc2)C[C@@H]2O[C@@H]21 (some centres not stated),inactive: -0.51%
20,C[C@@H]1C=CCP(=O)(Oc2ccccc2)O1 (some centres not stated),inactive: 0.021%
21,CC(=O)Nc1ccc([As](=O)(O)O)c(O)c1,inactive: 0.236%
22,CC(=O)Nc1ccc(Oc2c([N+](=O)[O-])cc([N+](=O)[O-])cc2[N+](=O)[O-])cc1,inactive: 0.356%
